Among the data in PubChem BioAssay AID904 (National Center for Advancing Translational Sciences (NCATS), 2007) are activity, negative = cell killing values, retold here.

Structures are written as SMILES. Only a part is listed here, and it is no random draw. Results filed as inconclusive are left out. Activity calls are given as the source filed them. The call rests on the fitted dose curve; in most records, active means well fitted cell-killing curve with a large enough effect; inconclusive means small, poorly fitted or top-dose-only effect; inactive means no such curve, though single readings can be large or run the other way.

A short description of this assay: qHTS Screen for Compounds that Selectively Target Cancer Cells with p53 Mutations: Cytotoxicity of p53 Null Cells at the Nonpermissive Temperature.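 Further: 0% = DMSO only and -100% = full killing by 100 µM tamoxifen; nearly all actives have a fitted effect of over 50% in size.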 To be noted: H1299 p53-null (neo) cells, 39C, ATPlite viability, 24 h; at 46.1 µM (top of the series). From the text: NIH Chemical Genomics Center [NCGC] NIH Molecular Libraries Screening Centers Network [MLSCN] MLSCN Grant: 1 X01 MH079844-01 Assay Submitter (PI): Dr. SUN, YI, University of Michigan NCGC Assay Overview: Synthetic Lethal Screen for Compounds to Kill Cancer Cells with p53 Mutation. Tumor suppressor gene p53 serves as a major cellular barrier against tumorigenesis. […] The goal of this screening is to identify small molecule probes that selectively kill cancer cells with mutations in p53. This screening was carried out using two lines of H1299 lung cancer cells. The H1299-p53 A138V line express a temperature sensitive p53 mutant (p53ts) in which the mutant p53 protein (A138V) is in the mutant confirmation when grown at 39C (the nonpermissive temperature) and in the wild type conformation when grown at 32C (the permissive temperature). A H1299-neo line (p53 null) grown at both 39C and 32C were used as counter-screens to filter out false positive associated with temperature shifting. The small molecular compounds that selectively target mutant p53-containing cancer cells were selected as candidate probes for further study. A cytotoxicity assay based on the measurement of ATP contents in cells was used in this screen. Concentration-responses of all the compounds in the library collection were determined in qHTS using the cell lines and temperature conditions as above.
NCGC Assay Protocol Summary: Both the H1299-p53A138V and H1299-neo cell lines were provided by Dr.Yi Sun, a PI at the University Michigan. The cells were maintained and cultured at 37C. The resuspended frozen cells were used to plate the cells in the 1536-well assay plates at a density of 600 cells per well in 5 ul medium. The assay plates with the cells were incubated at 37C for 16 to 30 hours before the experiments. The library compounds in DMSO solution were added to the cells in assay plates and incubated 24 hours at 39C (for mutant p53 conformation) or 32C (for normal p53 conformation as control). An ATP_lite assay kit (PerkinElmer) was used to determine the cell viability. Tomaxifen (100uM) was used as the positive control for cell killing. Data were normalized to the controls for basal activity (DMSO only) and 100% killing (100uM tamoxifen). AC50 values were determined from concentration-response data modeled with the standard Hill equation. P53 assay protocol: 1. Reagent; 5 uL H1299-p53A138V or H1299-neo cell cells/well 2. Time; overnight; 37C incubation 3. Compounds; 23 nL; 5.9 nM to 46 uM 4. Controls; 23 nL; Tamoxifen 100 uM 5. Time; 24 hr; 39C incubation 6. Reagent; 3 uL; ATP_Lite reagent 7. Time; 20 min; Room Temperature 8. Detection; Luminescence; Viewlux plate reader Keywords: p53, synthetic lethal, cancer, cell viability, cytotoxicity, H1299 cell line, luminescence, MLSMR, MLSCN, NIH Roadmap, qHTS, NCGC
In the case of `CCCOc1cccc(C(=O)NCC2(N3CCOCC3)CCCCC2)c1`, the activity, negative = cell killing was inactive: -4.35%.

`CCOc1ccc(C(=O)NCC2(N3CCOCC3)CCCCC2)cc1`: the activity, negative = cell killing is inactive: -13.9%.

Take `O=C(NCC1(N2CCOCC2)CCCCC1)c1ccccc1Br`: the activity, negative = cell killing was inactive: -5.33%.

Take `CCCCOc1ccccc1C(=O)NCC1(N2CCOCC2)CCCCC1`: the activity, negative = cell killing is inactive: -8.31%.

On to `O=C(NCC1(N2CCOCC2)CCCCC1)c1ccc(Cl)cc1`, for which the activity, negative = cell killing is inactive: 8.33%.

With `COc1ccccc1C(=O)NCC1(N2CCOCC2)CCCCC1`, the activity, negative = cell killing was inactive: 21.8%.

Take `Cc1ccccc1C(=O)NCC1(N(C)C)CCCCC1`: the activity, negative = cell killing is inactive: -24.8%.

Regarding `CC(C)(C)c1ccc(C(=O)NCC2(N3CCOCC3)CCCCC2)cc1`, the activity, negative = cell killing was inactive: 15.3%.

On to `CN(C)C1(CNC(=O)c2ccc(C(C)(C)C)cc2)CCCCC1`, for which the activity, negative = cell killing is inactive: -27.1%.

Consider `COc1cc(C(=O)NCC2(N3CCOCC3)CCCCC2)cc(OC)c1OC`, for which the activity, negative = cell killing is inactive: -17.9%.

Turning to `O=C(NCC1(N2CCOCC2)CCCCC1)c1ccccc1`, the activity, negative = cell killing is inactive: 15.4%.

Regarding `O=C(NCC1(N2CCOCC2)CCCCC1)c1ccccc1[N+](=O)[O-]`, the activity, negative = cell killing was inactive: -14.3%.

In the case of `O=C(NCC1(N2CCOCC2)CCCCC1)c1ccc([N+](=O)[O-])cc1`, the activity, negative = cell killing was inactive: 9.7%.
